Experimental findings from US20070010428A1, “Inhibitors of signal transduction and activator of transcription 3” (priority 2004, published 2007) are described below.

By UniProt entry, the sequences of proteins in these tests, tags left out.
UniProt P40763, whole entry: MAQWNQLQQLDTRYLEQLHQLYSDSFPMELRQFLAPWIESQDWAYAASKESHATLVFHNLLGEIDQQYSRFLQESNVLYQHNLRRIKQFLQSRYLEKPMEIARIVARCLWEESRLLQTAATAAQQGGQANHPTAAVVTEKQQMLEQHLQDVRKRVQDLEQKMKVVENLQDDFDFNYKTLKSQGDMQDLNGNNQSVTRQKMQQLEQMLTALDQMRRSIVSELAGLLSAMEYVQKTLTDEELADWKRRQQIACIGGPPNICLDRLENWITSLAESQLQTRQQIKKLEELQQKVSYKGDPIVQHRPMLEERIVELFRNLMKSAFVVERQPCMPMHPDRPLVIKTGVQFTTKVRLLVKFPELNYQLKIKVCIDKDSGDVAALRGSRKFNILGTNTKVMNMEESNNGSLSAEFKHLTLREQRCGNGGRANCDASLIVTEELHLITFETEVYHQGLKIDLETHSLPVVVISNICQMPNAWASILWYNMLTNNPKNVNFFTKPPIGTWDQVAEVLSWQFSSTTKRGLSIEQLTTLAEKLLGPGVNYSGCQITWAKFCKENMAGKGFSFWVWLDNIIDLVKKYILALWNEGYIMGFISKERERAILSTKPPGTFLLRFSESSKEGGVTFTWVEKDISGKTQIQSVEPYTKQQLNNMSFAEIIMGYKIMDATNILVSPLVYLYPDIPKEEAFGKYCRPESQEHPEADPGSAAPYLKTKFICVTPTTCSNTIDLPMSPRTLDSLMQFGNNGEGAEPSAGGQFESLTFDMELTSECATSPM

For orientation: IC50 means the concentration at which inhibition is half-maximal. A lower IC50 goes with higher potency.

This experiment has as its target Stat3 (UniProt P40763). The experiment is described as follows: fluorescence polarization competition.

In the case of pInd-Leu-Pro-Gln-Thr-NH2 (6, PM-59D), the IC50 is 150 nM. This counts as sub-micromolar.
